Measurements taken from patent US20250376512A1.

How the values were obtained:
[1] = target: cat FcRn (complex of cat FCGRT extracellular region with C-terminal His tag and cat β2m) (cat) (UniProt Q5MGS7); experiment: SPR (Biacore X100), antibody captured on Protein L chip, cat FcRn as analyte, pH 6.0 (repeats Table 3)
[2] = target: cat FcRn (complex of cat FCGRT extracellular region with C-terminal His tag and cat β2m) (cat) (UniProt Q5MGS7); experiment: SPR (Biacore X100), ratio of KD values at pH 6.0, reference wild-type Fc
[3] = target: cat FcRn (complex of cat FCGRT extracellular region with C-terminal His tag and cat β2m) (cat) (UniProt Q5MGS7); experiment: SPR (Biacore X100), antibody captured on Protein L chip, cat FcRn as analyte, pH 6.0
[4] = target: cat FcRn (complex of cat FCGRT extracellular region with C-terminal His tag and cat β2m) (cat) (UniProt Q5MGS7); experiment: SPR (Biacore X100), pH 6.0, fold against wild-type Fc
[5] = target: cat FcRn (complex of cat FCGRT extracellular region with C-terminal His tag and cat β2m) (cat) (UniProt Q5MGS7); experiment: SPR (Biacore X100), antibody captured on Protein L chip, cat FcRn as analyte, pH 7.4; pH 7.4
[6] = target: cat FcRn (complex of cat FCGRT extracellular region with C-terminal His tag and cat β2m) (cat) (UniProt Q5MGS7); experiment: SPR (Biacore X100), antibody captured on Protein L chip, cat FcRn as analyte, pH 6.0; pH 6.0
[7] = target: cat FcRn (complex of cat FCGRT extracellular region with C-terminal His tag and cat β2m) (cat) (UniProt Q5MGS7); experiment: SPR (Biacore X100), ratio of KD at pH 6.0 to KD at pH 7.4
[8] = target: dog FcRn (complex of dog FCGRT extracellular region with C-terminal His tag and dog β2m) (dog); experiment: SPR (Biacore X100), antibody captured on Protein L chip, dog FcRn as analyte, pH 6.0
[9] = target: dog FcRn (complex of dog FCGRT extracellular region with C-terminal His tag and dog β2m) (dog); experiment: SPR (Biacore X100), ratio of KD values at pH 6.0, reference wild-type Fc
[10] = target: dog FcRn (complex of dog FCGRT extracellular region with C-terminal His tag and dog β2m) (dog); experiment: SPR (Biacore X100), antibody captured on Protein L chip, dog FcRn as analyte, pH 6.0 (repeats Table 2)
[11] = target: dog FcRn (complex of dog FCGRT extracellular region with C-terminal His tag and dog β2m) (dog); experiment: SPR (Biacore X100), pH 6.0, fold against wild-type Fc
[12] = target: dog FcRn (complex of dog FCGRT extracellular region with C-terminal His tag and dog β2m) (dog); experiment: SPR (Biacore X100), antibody captured on Protein L chip, dog FcRn as analyte, pH 6.0; pH 6.0
[13] = target: dog FcRn (complex of dog FCGRT extracellular region with C-terminal His tag and dog β2m) (dog); experiment: SPR (Biacore X100), antibody captured on Protein L chip, dog FcRn as analyte, pH 7.4; pH 7.4
[14] = target: dog FcRn (complex of dog FCGRT extracellular region with C-terminal His tag and dog β2m) (dog); experiment: SPR (Biacore X100), ratio of KD at pH 6.0 to KD at pH 7.4
[15] = target: dog FcRn (complex of dog FCGRT extracellular region with C-terminal His tag and dog β2m) (dog); experiment: SPR (Biacore X100), antibody captured on Protein L chip, dog FcRn as analyte, pH 7.4

Row | Substance | KD (variant)/KD (wild-type) at pH 6.0 [2] | activity of Fc region variant with FcRn binding activity of wild-type Fc as 1 [4] | Kd [5] [µM] | Kd [6] [µM] | KD (pH6.0)/KD (pH7.4) [7] | Kd [8] [µM] | KD (variant)/KD (wild-type) at pH 6.0 [9] | Kd [10] [µM] | activity of Fc region variant with FcRn binding activity of wild-type Fc as 1 [11] | KD (pH6.0)/KD (pH7.4) [14] | further results
1 | CFV-3 (omalizumab Fd-Hinge fused to cat Fc region variant S428L/S434A/Q438R/S440E, with omalizumab L chain) (antibody) | 0.07 | 13.7 | – | – | – | – | – | – | – | – | Kd [1]: 0.0462 µM; Kd [3]: 0.0462 µM
2 | CFV-4 (omalizumab Fd-Hinge fused to cat Fc region variant S252Y/S254T/T256E, with omalizumab L chain) (antibody) | 0.03 | 29.5 | 4.61 | 0.0214 | 0.005 | – | – | – | – | – | –
3 | CFV-6 (omalizumab Fd-Hinge fused to cat Fc region variant I308P/S434Y, with omalizumab L chain) (antibody) | 0 | 259 | 1.06 | 0.0027 | 0.003 | – | – | – | – | – | –
4 | CFV-7 (omalizumab Fd-Hinge fused to cat Fc region variant V259I/I308F/S428L, with omalizumab L chain) (antibody) | 0.07 | 13.7 | – | – | – | – | – | – | – | – | Kd [1]: 0.051 µM; Kd [3]: 0.051 µM
5 | CFV-8 (omalizumab Fd-Hinge fused to cat Fc region variant S252T/S254T/T256E/H433L/S434F, with omalizumab L chain) (antibody) | 0.06 | 17.8 | 6.39 | 0.0393 | 0.006 | – | – | – | – | – | –
6 | DFV-1 (omalizumab Fd-Hinge fused to dog Fc region variant N434A/Y436T/Q438R/S440E, with omalizumab L chain) (antibody) | – | – | – | – | – | 0.543 | 0.27 | 0.543 | 3.7 | – | –
7 | DFV-4 (omalizumab Fd-Hinge fused to dog Fc region variant L252Y/A254T/T256E, with omalizumab L chain) (antibody) | – | – | – | – | – | – | 0.05 | – | 18.2 | 0.006 | Kd [12]: 0.109 µM; Kd [13]: 18.1 µM
8 | DFV-5 (omalizumab Fd-Hinge fused to dog Fc region variant M428L/N434S, with omalizumab L chain) (antibody) | – | – | – | – | – | 0.82 | 0.46 | 0.82 | 2.2 | 0.357 | Kd [15]: 2.3 µM
9 | DFV-8 (omalizumab Fd-Hinge fused to dog Fc region variant L252T/A254T/T256E/H433L/N434F, with omalizumab L chain) (antibody) | – | – | – | – | – | 0.0696 | 0.03 | 0.0696 | 28.8 | 0.01 | Kd [15]: 6.85 µM
